The target in this assay is T1, SRRM2_3-Halo (JF646 Halo ligand covalently bound to the Halo tag).
T1 construct: also called truncation 3
Kind of assay: Halo (JF646) imaging in seeded HEK293 tau biosensor cells.

B1: tau aggregates in HEK293 tau biosensor cells (4R repeat domain of tau (K18) with the P301S mutation fused to CFP or YFP, seeded with clarified tau mouse brain … (other, UniProt P10636-8 244-372, looked up)
chain: QTAPVPMPDLKNVKSKIGSTENLKHQPGGGKVQIINKKLDLSNVQSKCGSKDNIKHVSGGGSVQIVYKPVDLSKVTSKCGSLGNIHHKPGGGQVEVKSEKLDFKDRVQSKIGSLDNITHVPGGGNKKIE
notes: domain: 4R repeat domain of tau (K18); Aggregated, insoluble form inside cells; the aggregates are seeded with brain homogenate of tau transgenic mice and may hold other proteins and RNA; Number of chains in an aggregate not defined; also called cytoplasmic tau aggregates; nuclear tau aggregates; not shown: CFP or YFP fused to the repeat domain
In the case of B1, the binding result is “no binding”.

Source of the values: patent publication US20250215059A1 (REGENTS OF THE UNIVERSITY OF COLORADO A BODY CORPORATE, published 2025).
